From US8207217B2, “Crystalline forms of the mono-sodium salt of D-isoglutamyl-D-tryptophan” (Apotex Technologies Inc, priority 2007, dated 2012)

Test: Solubility in water
Format: physicochemical
Experimental: A solution of D-isoglutamyl-D-tryptophan and sodium hydroxide in water is prepared by adding solid D-isoglutamyl-D-tryptophan to sodium hydroxide solution. […] Sodium hydroxide is chosen based on the convenience in obtaining sodium hydroxide solution, however other sodium bases such as sodium hydride, sodium carbonate, sodium bicarbonate can be used. These chemicals are obvious chemical equivalents to sodium hydroxide for step (a) of the process. In step (b), the solution is filtered to remove any particulates prior to proceeding to step (c).

Substance: mono-sodium salt of D-isoglutamyl-D-tryptophan
- solubility in water: extremely soluble in water
